The target of the experiment is T1, mu-opioid receptor (Homo sapiens, UniProt P35372).
T1 construct: host or cells: CHO-K1
In kind it is binding. The note with it: read-out: IC-50 of competitor against DRM-800.

The chains behind the UniProt entries cited, without tags or fusion partners.
UniProt P35372, whole entry, looked up: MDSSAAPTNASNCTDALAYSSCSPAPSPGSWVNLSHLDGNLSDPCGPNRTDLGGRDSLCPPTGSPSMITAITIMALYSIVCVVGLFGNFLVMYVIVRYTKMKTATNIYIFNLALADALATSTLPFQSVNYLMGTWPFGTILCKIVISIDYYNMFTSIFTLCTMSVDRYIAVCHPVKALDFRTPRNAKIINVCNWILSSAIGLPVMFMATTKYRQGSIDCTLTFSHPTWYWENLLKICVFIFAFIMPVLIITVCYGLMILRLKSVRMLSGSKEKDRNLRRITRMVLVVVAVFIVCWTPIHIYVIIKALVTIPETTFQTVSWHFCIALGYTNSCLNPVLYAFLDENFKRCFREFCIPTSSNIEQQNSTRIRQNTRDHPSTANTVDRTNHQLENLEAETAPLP

Consider [Lys7]Dermorphin, for which the IC50 came to 0.04 µM.

(Values after publication doi:10.1101/2023.06.19.545627v1, “Pharmacokinetic profile of the synthetic mu-opioid receptor agonist [Lys7]Dermorphin-IRDye®800CW and its feasibility as a biomarker for opioid use disorder” (bioRxiv, 2023).)
